Data published in ChEMBL document CHEMBL3526101, “Discovery and characterization of novel, potent, and selective cytochrome P450 2J2 inhibitors” (Drug Metab Dispos, 2013).

Sequences of proteins named here, by UniProt entry; tags and fusion partners are left off.
UniProt P11712, whole entry: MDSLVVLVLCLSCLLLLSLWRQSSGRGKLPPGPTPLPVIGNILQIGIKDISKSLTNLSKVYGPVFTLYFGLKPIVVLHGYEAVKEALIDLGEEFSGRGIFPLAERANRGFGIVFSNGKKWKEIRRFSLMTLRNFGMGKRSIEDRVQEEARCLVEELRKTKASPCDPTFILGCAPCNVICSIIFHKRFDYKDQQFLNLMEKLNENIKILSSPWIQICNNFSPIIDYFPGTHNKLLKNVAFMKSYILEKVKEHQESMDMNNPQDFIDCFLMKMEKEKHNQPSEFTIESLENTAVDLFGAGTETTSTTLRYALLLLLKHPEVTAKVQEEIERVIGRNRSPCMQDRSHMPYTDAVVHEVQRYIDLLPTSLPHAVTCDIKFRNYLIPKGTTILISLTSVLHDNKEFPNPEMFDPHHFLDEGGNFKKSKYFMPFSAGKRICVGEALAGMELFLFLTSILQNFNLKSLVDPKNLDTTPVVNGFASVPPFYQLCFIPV

How the values were obtained:
[1] = biological target: T1, Cytochrome P450 2J2 (Homo sapiens, UniProt P51589)
T1 sequence (P51589 whole entry): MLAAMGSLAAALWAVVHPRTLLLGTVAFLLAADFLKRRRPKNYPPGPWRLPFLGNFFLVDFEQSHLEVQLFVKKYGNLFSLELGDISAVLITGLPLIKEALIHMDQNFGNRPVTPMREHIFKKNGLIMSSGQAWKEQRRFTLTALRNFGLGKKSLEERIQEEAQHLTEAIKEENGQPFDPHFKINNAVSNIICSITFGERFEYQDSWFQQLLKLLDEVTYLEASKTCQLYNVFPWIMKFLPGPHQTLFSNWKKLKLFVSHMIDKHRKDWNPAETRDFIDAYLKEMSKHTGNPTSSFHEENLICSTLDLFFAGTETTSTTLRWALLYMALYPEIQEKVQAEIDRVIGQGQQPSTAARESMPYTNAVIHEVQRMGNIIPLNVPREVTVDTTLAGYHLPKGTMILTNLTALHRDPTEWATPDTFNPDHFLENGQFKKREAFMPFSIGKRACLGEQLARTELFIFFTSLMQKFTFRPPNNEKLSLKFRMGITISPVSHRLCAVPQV

[2] = biological target: Cytochrome P450 2C9 (Homo sapiens, UniProt P11712)

SMILES | IC50 [1] [µM] | IC50 [2] [µM]
CN(C)CCOC(c1ccccc1)c1ccccc1 [DIPHENHYDRAMINE] | > 50 | –
CNCCCN1c2ccccc2CCc2ccccc21 [DESIPRAMINE] | > 50 | –
CC(C)COCC(CN(Cc1ccccc1)c1ccccc1)N1CCCC1 (stereo unspecified) [BEPRIDIL] | – | 4.31
CN1C(C(=O)Nc2ccccn2)=C(O)c2sccc2S1(=O)=O [TENOXICAM] | > 50 | –
CCn1cc(C(=O)O)c(=O)c2cc(F)c(N3CCNCC3)cc21 [NORFLOXACIN] | 2.56 | –
CC(C)NCC(O)COc1cccc2ccccc12 (stereo unspecified) [PROPRANOLOL] | > 50 | –
O=C(O)Cc1ccccc1Nc1c(Cl)cccc1Cl [DICLOFENAC] | > 50 | –
CNCCC(Oc1ccc(C(F)(F)F)cc1)c1ccccc1 (stereo unspecified) [FLUOXETINE] | > 50 | –
Cc1cc(=O)n(-c2ccccc2)n1C [ANTIPYRINE] | > 50 | –
CC(C)Cc1ccc(C(C)C(=O)O)cc1 (stereo unspecified) [IBUPROFEN] | > 50 | –
Clc1ccccc1CN1CCc2sccc2C1 [TICLOPIDINE] | 21.8 | –
CCc1cccc2cc(C(O)CNC(C)(C)C)oc12 (stereo unspecified) [BUFURALOL] | > 50 | –
Cc1cccc(C)c1OCC(C)N (stereo unspecified) [MEXILETINE] | > 50 | –
O=C(CCCN1CCC(O)(c2ccc(Cl)cc2)CC1)c1ccc(F)cc1 [HALOPERIDOL] | 4.69 | –
COC(=O)C1=C(C)NC(C)=C(C(=O)OCCN(C)Cc2ccccc2)C1c1cccc([N+](=O)[O-])c1 (stereo unspecified) [NICARDIPINE] | 1.69 | –
CN/C(=N/CCSCc1nc[nH]c1C)NC#N [CIMETIDINE] | > 50 | –
